Values of other authors as cited in patent publication US7229966B2, “Compositions and methods for enhanced mucosal delivery of Y2 receptor-binding peptides and methods for treating and preventing obesity” (Nastech Pharmaceutical Company Inc., priority 2002, dated 2007).

Details: compared with 86% in the original material; cited from earlier work

albumin: albumin processed into micro-particles for aerosol delivery (literature)
monomer retained after processing: 50–75%
